{
  "source": "paper doi:10.1101/679977v1",
  "about": "(bioRxiv, 2019)",
  "tested_on": "E. coli ATCC25922",
  "test": "Salt, serum, acid and alkaline sensitivity",
  "format": "cell-based",
  "data": [
    {"smiles": "CC[C@H](C)[C@H](NC(=O)CN)C(=O)NCC(=O)N[C@@H](C)C(=O)N[C@H](C(=O)N[C@@H](CC(C)C)C(=O)N[C@@H](CCCCN)C(=O)N[C@H](C(=O)N[C@@H](CC(C)C)C(=O)N[C@H](C(=O)N[C@H](C(=O)NCC(=O)N[C@@H](CC(C)C)C(=O)N1CCC[C@H]1C(=O)N[C@@H](C)C(=O)N[C@@H](CC(C)C)C(=O)N[C@H](C(=O)N[C@@H](CO)C(=O)N[C@@H](Cc1c[nH]c2ccccc12)C(=O)N[C@H](C(=O)N[C@@H](CCCCN)C(=O)N[C@@H](CCCNC(=N)N)C(=O)N[C@@H](CCCCN)C(=O)N[C@@H](CCCNC(=N)N)C(=O)N[C@@H](CCC(N)=O)C(=O)N[C@@H](CCC(N)=O)C(N)=O)[C@@H](C)CC)[C@@H](C)CC)[C@@H](C)O)[C@@H](C)O)C(C)C)C(C)C", "note": "[MLT, Melittin, reference compound]", "values": [
      {"measurement": "MIC, Control", "setting": "absence of physiological salts, serum, acid and alkaline", "value": 4, "unit": "µM"},
      {"measurement": "MIC, FeCl3", "setting": "in presence of 4μM FeCl3 (final)", "value": 4, "unit": "µM"},
      {"measurement": "MIC, MgCl2", "setting": "in presence of 1 mM MgCl2", "value": 8, "unit": "µM"},
      {"measurement": "MIC, KCl", "setting": "in presence of 4.5 mM KCl (final)", "value": 4, "unit": "µM"},
      {"measurement": "MIC, NaCl", "setting": "in presence of 150 mM NaCl (final)", "value": 16, "unit": "µM"},
      {"measurement": "MIC, PH=2", "setting": "peptide incubated at pH=2 for 4 h prior to MIC determination", "value": 4, "unit": "µM"},
      {"measurement": "MIC, PH=4", "setting": "peptide incubated at pH=4 for 4 h prior to MIC determination", "value": 4, "unit": "µM"},
      {"measurement": "MIC, PH=10", "setting": "peptide incubated at pH=10 for 4 h prior to MIC determination", "value": 4, "unit": "µM"},
      {"measurement": "MIC, PH=12", "setting": "peptide incubated at pH=12 for 4 h prior to MIC determination", "value": 4, "unit": "µM"}
    ]}
  ]
}
